Test results from patent US9402842B2, “Synthesis and use of dual tyrosyl-DNA phosphodiesterase I (Tdp1)—topoisomerase I (Top1) inhibitors” (Purdue Research Foundation, priority 2012, dated 2016).

Chains of the proteins cited; added tags and fusions are not shown.
UniProt Q9NUW8, whole entry: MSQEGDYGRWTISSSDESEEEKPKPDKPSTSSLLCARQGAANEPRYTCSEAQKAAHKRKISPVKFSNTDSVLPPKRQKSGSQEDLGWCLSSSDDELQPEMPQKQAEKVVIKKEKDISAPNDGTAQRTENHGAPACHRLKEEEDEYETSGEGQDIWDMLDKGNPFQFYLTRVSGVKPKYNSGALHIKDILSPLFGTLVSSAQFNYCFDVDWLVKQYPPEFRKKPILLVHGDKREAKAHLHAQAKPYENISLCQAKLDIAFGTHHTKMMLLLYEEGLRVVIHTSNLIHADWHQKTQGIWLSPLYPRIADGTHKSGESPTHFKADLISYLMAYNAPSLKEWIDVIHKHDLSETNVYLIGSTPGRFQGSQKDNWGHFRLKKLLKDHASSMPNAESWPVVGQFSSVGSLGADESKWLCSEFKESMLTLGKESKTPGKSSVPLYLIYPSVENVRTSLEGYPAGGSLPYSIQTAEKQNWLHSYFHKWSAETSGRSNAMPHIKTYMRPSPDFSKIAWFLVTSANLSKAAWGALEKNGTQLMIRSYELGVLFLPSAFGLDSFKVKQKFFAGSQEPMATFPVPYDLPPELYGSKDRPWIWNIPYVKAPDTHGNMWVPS

Key:
Tdp1 = Tdp1 (Homo sapiens (Human), UniProt Q9NUW8); experiment: Gel-based assay measuring the inhibition of recombinant Tdp1; format: biochemical
OVCAR-3 = experiment: NCI screen cytotoxicity, ovarian OVCAR-3; settings: read-out: Cytotoxicity (GI50 in μM) ovarian OVCAR-3; 50% growth inhibition

Row | Molecule | Tdp1 inhibitory activity (in words) (Tdp1) | GI50 (OVCAR-3) [µM]
1 | CC(=O)OCCn1c2c(c3ccccc3c1=O)C(=O)c1ccccc1-2 [Compound 31, 2-(5,11-Dioxo-5H-indeno[1,2-c]isoquinolin6(11H)-yl)ethyl Acetate] | weakly active | 
2 | N-(6-(5,11-Dioxo-5H-indeno[1,2-c]isoquinolin-6(11H)hexyl)-methanesulfonamide [Compound 84] |  | 1.32
